{"sequences": {"note": "Chains of the proteins cited; added tags and fusions are not shown.", "UniProt P10276, whole entry": "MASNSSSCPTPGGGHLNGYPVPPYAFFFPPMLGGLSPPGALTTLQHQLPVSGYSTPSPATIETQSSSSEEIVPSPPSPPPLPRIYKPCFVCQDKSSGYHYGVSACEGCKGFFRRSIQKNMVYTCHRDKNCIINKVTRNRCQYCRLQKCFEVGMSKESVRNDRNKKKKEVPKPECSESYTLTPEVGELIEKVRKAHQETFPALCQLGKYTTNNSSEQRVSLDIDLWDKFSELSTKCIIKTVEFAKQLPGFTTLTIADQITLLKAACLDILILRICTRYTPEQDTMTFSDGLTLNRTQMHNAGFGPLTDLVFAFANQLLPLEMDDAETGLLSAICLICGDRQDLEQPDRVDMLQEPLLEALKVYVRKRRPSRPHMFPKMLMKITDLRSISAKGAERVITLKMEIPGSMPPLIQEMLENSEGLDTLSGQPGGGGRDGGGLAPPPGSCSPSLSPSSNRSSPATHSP"}, "source": "patent US20030207791A1", "about": "“Materials and methods relating to the treatment of leukaemias” (priority 2000, published 2003)", "molecular_target": "T1, p53-RAR (Homo sapiens, UniProt P10276)", "T1 construct": "fused on or other part: The p53 tetramerization domain sits N-terminal to whole RAR alpha; It is counted as the second part of the chimera", "assay": "RA sensitivity of transcriptional repression, RARE-containing reporter", "assay_type": "cell-based", "conditions": "repression by p53-RAR on a RARE-containing reporter", "data": [{"smiles": "CC1=C(/C=C/C(C)=C\\C=C\\C(C)=C\\C(=O)O)C(C)(C)CCC1", "note": "[9-cis-RA]", "values": [{"measurement": "relief of transcriptional repression by RAR ligand", "value": "identical results"}]}]}
